Measurements: ChEMBL document CHEMBL2417532, “Toxoflavins and deazaflavins as the first reported selective small molecule inhibitors of tyrosyl-DNA phosphodiesterase II” (J Med Chem, 2013)

Columns and labels:
[1] = target: T1, Tyrosyl-DNA phosphodiesterase 2 (Homo sapiens, UniProt O95551); assay: Inhibition of TDP2 (unknown origin) using 5'-Y-TCCGTTGAAGCCTGCTTT-3' as substrate after 60 mins
T1 sequence (O95551 whole entry): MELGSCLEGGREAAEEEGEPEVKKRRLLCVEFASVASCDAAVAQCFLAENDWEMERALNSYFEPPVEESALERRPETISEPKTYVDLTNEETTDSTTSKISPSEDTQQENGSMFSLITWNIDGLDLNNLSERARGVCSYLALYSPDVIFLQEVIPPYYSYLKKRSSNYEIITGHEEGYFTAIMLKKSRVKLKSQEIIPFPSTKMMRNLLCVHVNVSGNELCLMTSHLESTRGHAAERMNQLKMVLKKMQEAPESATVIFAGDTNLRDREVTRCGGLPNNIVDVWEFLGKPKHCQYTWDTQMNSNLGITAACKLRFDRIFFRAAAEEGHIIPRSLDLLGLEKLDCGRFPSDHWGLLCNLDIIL
Summary of the method: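 TDP2 in 25 mM Hepes pH 8.0, 10 mM MgCl2, 130 mM KCl, 1 mM DTT, 0.03% BSA, 1% DMSO. Started with 5′-phosphotyrosyl oligonucleotide and run 60 min at 25 °C. Values are geometric means of at least two independent determinations.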

[2] = target: T1, Tyrosyl-DNA phosphodiesterase 2; assay: Inhibition of TDP2 (unknown origin) using 4-nitrophenyl phenylphosphonate as substrate after 60 mins

O=c1nc2n(-c3ccccc3)c3ccccc3cc-2c(=O)[nH]1
IC50 [1]: > 30 µM
EC50 [2]: > 30 µM
